Results: patent US10414150B2, “Active-energy-ray-curable composition, composition stored container, two-dimensional or three-dimensional image forming apparatus, method for forming two-dimensional or three-dimensional image, and cured product” (Ricoh Company, Ltd., priority 2015, dated 2019)

Tests used:
Female mice = experiment: Skin sensitization test by LLNA (Local Lymph Node Assay) method, SI value; conditions: test substance 50.0 w/v % in acetone:olive oil 4:1, 25 μL/auricle, once/day × 3 days, SI less than 3 = negative
[1] = negative = satisfies at least one of (1) LLNA SI less than 3, (2) MSDS, (3) reference; cited from earlier work

| Substance | SI value (Stimulation Index) measured by LLNA test (Female mice) | Skin sensitization [1] |
| --- | --- | --- |
| Ethyleneoxide-modified trimethylolpropane trimethacrylate [Example B4] | 1.0 | negative |
| Tricylodecane dimethanol diacrylate [Example B3] | 1.3 |  |
